The values below come from US20250186489A1, “REPROGRAMMING OF CELLS TO TYPE 1 CONVENTIONAL DENDRITIC CELLS OR ANTIGEN-PRESENTING CELLS” (Asgard Therapeutics AB, priority 2021, published 2025).

The assay has as its system human embryonic fibroblasts (HEF). Description: cDC1 reprogramming efficiency of human embryonic fibroblasts, flow cytometry for CD45+HLA-DR+ cells at day 9. It counts as cell-based. To be noted: HEF with Dox-inducible PIB. The method, then: HEFs, HDFs and Clec9a-tdTomato MEFs were seeded at a density of 40,000 cells per well and MSCs at a density of 50,000 cells per well on 0.1% gelatin coated 6-well plates. On the following day, cells were incubated overnight with either a ratio of 1:1 TetO-PIB and M2rtTA, SFFV-PIB-GFP or SFFV-GFP lentiviral particles in media supplemented with 8 μg/ml polybrene. Cells were transduced overnight twice in consecutive days and media replaced in between. After the second transduction, media was replaced by normal growth media (day 0). When using TetO-PIB, media was supplemented with Dox (1 μg/ml). Media was changed every 2-3 days for the duration of cultures. […]
For the analysis of surface marker expression, human and mouse cells were dissociated and incubated with antibodies diluted in PBS 5% FBS at 4° C. for 30 minutes in the presence of mouse or rat serum (1/100, GeneTex), for human and mouse cells respectively, to block unspecific binding. Cells were washed and resuspended in PBS 5% FBS and analyzed in BD FACSCanto II or BD LSRFortessa flow cytometers (BD Biosciences), unless stated otherwise. […] Flow cytometry data were analyzed using FlowJo software (FLOWJO, LLC, version 10.6.1). […]
17 human hematopoietic cytokines including inflammatory mediators (Table 3) were individually added to the culture media 2 days after PIB induction in HEFs, and reprogramming efficiency was measured at day 9. […]
In general terms: A flow cytometer gives signals particle by particle.

B1: IFN-β: cytokine (protein, UniProt P01574 22-187, looked up)
Interferon beta: MSYNLLGFLQRSSNFQCQKLLWQLNGRLEYCLKDRMNFDIPEEIKQLQQFQKEDAALTIYEMLQNIFAIFRQDSSSTGWNETIVENLLANVYHQINHLKTVLEEKLEKEDFTRGKLMSSLHLKRYYGRILHYLKAKEYSHCAWTIVRVEILRNFYFINRLTGYLRN
In the case of B1, the “fold increase in reprogramming efficiency versus condition without cytokines” value is given as 4 fold.
